Results taken from patent publication US9604926B2 (THE UNIVERSITY OF MISSISSIPPI, priority 2007, dated 2017).

Chains of the proteins cited; added tags and fusions are not shown. Lines headed by an entry give the natural chain unless they say otherwise; changes in a name come on top.
UniProt Q5U3Y7: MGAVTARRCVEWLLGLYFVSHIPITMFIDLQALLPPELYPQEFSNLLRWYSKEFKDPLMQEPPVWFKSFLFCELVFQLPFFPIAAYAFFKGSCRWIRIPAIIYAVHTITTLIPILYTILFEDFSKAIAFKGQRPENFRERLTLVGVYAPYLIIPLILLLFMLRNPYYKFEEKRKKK

Biological target: σ-2 receptor (Rattus norvegicus (Rat), UniProt Q5U3Y7)
Assay: σ-2 receptor binding in rat brain homogenates ([3H]DTG plus (+)-pentazocine)
Conditions: read-out: Ki (nM) σ2; compound listing tables

## COc1cc2c(cc1OC)CN(CCCCn1ccc3ccccc31)CC2 [CM 360]
  Ki: 0.21 ± 0.02 nM
